Data as given in patent publication US9289388B2, “Methods and compositions for delivery of medicaments to the lungs” (Paka Pulmonary Pharmaceuticals, Inc., priority 2008, dated 2016).

By UniProt entry, the sequences of proteins in these tests, tags left out. Residues count along the entry.
UniProt P08246, 30-267 limits assumed: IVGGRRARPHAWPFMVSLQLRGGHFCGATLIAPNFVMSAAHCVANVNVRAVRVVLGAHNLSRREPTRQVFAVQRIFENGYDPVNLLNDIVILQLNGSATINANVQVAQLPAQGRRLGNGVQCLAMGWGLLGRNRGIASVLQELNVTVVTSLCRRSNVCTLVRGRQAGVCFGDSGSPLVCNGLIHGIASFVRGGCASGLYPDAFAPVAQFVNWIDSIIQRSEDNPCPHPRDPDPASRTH

Legend:
mice exposed to HNE = assay: Bronchoalveolar lavage of the lungs following HNE exposure (lung blood cell level)
Protocol: A total of 14 animals were used in this study. Anesthetized mice received 0.1 ml of solution delivered by a blunt tip catheter to the opening of the trachea and the animals allowed to aspirate the solution into their lungs (this method is also referred to as intratracheal instillation). All animals were exposed to the treatment for 2 hours and re-anesthetized. Bronchoalveolar lavage of the lungs was performed as described below. […] Target 2 (a potent HNE inhibitor developed by Zeneca in the early 1990s) when given with the HNE, reduced the average blood level in the lungs by 34% to 0.035 grams. Target C (the Zeneca molecule covalently attached to the N-terminus of the first 25 residues of the human surfactant B peptide) when given with the HNE reduced the average blood level in the lungs by 87% to 0.007 grams.
A set of animals was used to determine the optimal concentration of HNE for the study. […] The amount of HNE was reduced to 40 micrograms to maintain a maximal detrimental but survivable effect. The animals exposed to 40 micrograms of HNE were able to survive long enough to perform the complete study. All animals remaining in the complete study were exposed to 40 micrograms of HNE.
(§1) Target 2 (the Zeneca molecule) was given in a 70-fold molar excess relative to HNE. In the kinetic studies, Target 2 has 2 nM affinity. Target C (the Zeneca molecule covalently attached to the first 25 residues of the human surfactant peptide B) loses approximately two orders of magnitude of potency as compared to Target 2 in the kinetic studies and thus Target C has approximately 200 nM affinity for HNE. Accordingly, the Target C was given to the animals in a 100 fold molar excess relative to HNE in these studies.
Bronchio-Alveolar lavage (BAL) is performed by 1) anesthetizing the animals; 2) performing a tracheotomy on the animals and cutting open the chest and spreading the ribs to enable full lung expansion; 3) pressurizing 1 ml of PBS buffer solution into the lungs through the tracheotomy catheter; 4) sucking the solution out of the lungs; 5) centrifuging the recovered solution to separate the red blood cell fraction from the liquid fraction; and 6) weighing the red blood cell fraction.

HNE = HNE (Homo sapiens, UniProt P08246); assay: kinetic studies of HNE inhibition; conditions: read-out: affinity for HNE
Protocol: as §1

[1] = system: mice with HNE induced emphysema; assay: HNE induced emphysema, intratracheal delivery, lung histology and mean linear intercept after four weeks
Protocol: A total of 42 animals were used in this study. Anesthesized mice received 0.1 ml of solution delivered by intratracheal instillation as described above in Example 4. Animals were divided into the following treatment groups: four animals received saline only; ten animals received HNE only; four animals received the Zeneca inhibitor (target 2) only; eight animals received HNE mixed with the Zeneca inhibitor (target 2); eight animals received Zeneca inhibitor linked to a lung surfactant peptide (target C) only; and eight animals received HNE mixed with Zeneca inhibitor linked to a lung surfactant peptide (target C). Animals receiving HNE were instilled with 40 micrograms HNE. Target 2 (Zeneca inhibitor) was administered in a 70-fold molar excess relative to HNE and Target C (Zeneca inhibitor linked to a lung surfactant peptide) was administered in a 100 fold molar excess relative to HNE as described in Example 4.
All animals were observed a four week period prior to sacrifice following IRB approved protocols and the lungs from each animal were removed for sectioning. The Hilar and central region was sectioned from the left lung and the caudal region was sectioned from the right lung of each animal. Lung sections were scored using blind-scoring by an expert as “E” for emphysema and “N” for no emphysema.
The distance between adjacent alveolar walls was also measured to quantitate the degree of lung destruction for each treatment group. Lung sections obtained from each animal were analyzed under a microscope (which is connected to a computer) and lines were drawn over the lung sections between adjacent alveolar walls. The distance along the lines was calculated to determine the average distance or mean linear intercept (MLI) between adjacent alveolar walls. An increase in the average distance between adjacent alveolar walls corresponds to an increase in lung destruction.

[2] = given with 40 micrograms HNE by intratracheal instillation, 2 hours, weight of BAL red blood cell fraction

CC(C)[C@H](NC(=O)CC(=O)O)C(=O)N1CCCC1C(=O)N[C@H](C(=O)C(F)(F)C(=O)NCc1ccccc1)C(C)C (some centres unmarked)
Lung Blood Cell Level, Group mean (mice exposed to HNE; [2]): 0.035 g
Lung Blood Cell Level, Mouse Group 4 (mice exposed to HNE; [2]): 0.039 g
Lung Blood Cell Level, Mouse group 1 (mice exposed to HNE; [2]): 0.03 g
Lung Blood Cell Level, Mouse group 2 (mice exposed to HNE; [2]): 0.041 g
Lung Blood Cell Level, Mouse group 3 (mice exposed to HNE; [2]): 0.03 g
average blood level in the lungs (mice exposed to HNE; given with the HNE, 2 hours, HNE alone 0.053 grams): 0.035 grams
reduction of the average blood level in the lungs (mice exposed to HNE; given with the HNE, versus HNE alone): 34%
Ki (HNE): 2 nM
MLI (mean linear intercept between adjacent alveolar walls) ([1]; HNE (40 micrograms) mixed with compound, intratracheal, four weeks, saline only 44.40, HNE only 51.45): 53.27 μm
effect on HNE induced emphysema by MLI ([1]; HNE + compound, compared to HNE only and saline only): no effect on HNE induced emphysema
effect on HNE induced emphysema, lung histology sections ([1]; HNE mixed with compound, four weeks, blind scoring): no effect on HNE induced emphysema
